# In PMC11986510, “Duplexed CeTEAM drug biosensors reveal determinants of PARP inhibitor selectivity in cells” (The Journal of Biological Chemistry, 2025):
# The chains behind the UniProt entries cited, without tags or fusion partners. Residues count along the entry.
# UniProt Q9UGN5, 1-570 isoform 2 L269A: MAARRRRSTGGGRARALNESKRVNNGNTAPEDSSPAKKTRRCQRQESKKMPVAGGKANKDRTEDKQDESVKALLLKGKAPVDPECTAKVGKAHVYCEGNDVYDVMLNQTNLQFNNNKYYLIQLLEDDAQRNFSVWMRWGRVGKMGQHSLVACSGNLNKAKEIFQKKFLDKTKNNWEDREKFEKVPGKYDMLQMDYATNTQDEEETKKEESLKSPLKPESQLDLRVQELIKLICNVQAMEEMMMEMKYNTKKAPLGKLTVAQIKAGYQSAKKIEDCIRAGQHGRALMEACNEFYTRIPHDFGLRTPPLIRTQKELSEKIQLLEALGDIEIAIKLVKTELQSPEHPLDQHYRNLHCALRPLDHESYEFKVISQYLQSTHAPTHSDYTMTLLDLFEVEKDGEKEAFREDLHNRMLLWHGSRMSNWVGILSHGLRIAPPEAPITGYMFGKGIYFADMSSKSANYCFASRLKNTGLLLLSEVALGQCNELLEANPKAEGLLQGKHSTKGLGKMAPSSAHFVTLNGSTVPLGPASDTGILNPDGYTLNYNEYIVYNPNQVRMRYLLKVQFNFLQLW
# Molecular target: PARP2 L269A-mCherry (Homo sapiens, UniProt Q9UGN5, L282A)
# Experiment: Rescreen of PARP1 L713F stabilizers, PARP2 L269A-mCherry intensity
# Type: cell-based
# Details: 10 μM, 16 h; hit = statistically significant (p < 0.05)
structure (smiles),measurement,value
O=c1[nH]c(SCCN2CCN(c3ccccn3)CC2)nc2ccccc12 [MC2050],PARP2 L269A-mCherry abundance change versus DMSO control,except for MC2050 and MC3474
